What was measured:
CDK9 [1] = target: T1, CDK9 (Homo sapiens, UniProt P50750); test: CDK9 degradation by HiBit assay, NCIH211 cells; details: read-out: HiBit-NCIH211.2 DC50; NCIH211 cells with endogenously tagged N-terminal CDK9-HiBit, 24 hours incubation
Method: (§1) Exemplary compounds of the invention were tested for degradation of CDK9. The compounds were tested in 10-dose DC50 duplicate mode with a 3-fold serial dilution starting at 10 μM by HiBit assay (Promega, Inc) as a direct measurement of CDK9 presence, with incubation time of 24 hours using either NCIH211 cells with endogenously tagged N-terminal CDK9-HiBit or NCIH1048 cells with endogenously tagged N-terminal CDK9-HiBit. A control compound (THAL-SNS-032, CAS 2139287-33-3) was tested in 10-dose DC50 mode with 3-fold serial dilution starting at 10 μM. Data was normalized to positive (medium only) and negative (cells with no treatment) controls and curve fits were analyzed with CDK9 as % response vs. log [compound concentration] using a 4-parameter logistic model by GraphPad software. For Table 2: A is <100, B is <1000 C is <10,000, D is >10,000 and ND is Not Determined.

By UniProt entry, the sequences of proteins in these tests, tags left out.
UniProt P50750, whole entry: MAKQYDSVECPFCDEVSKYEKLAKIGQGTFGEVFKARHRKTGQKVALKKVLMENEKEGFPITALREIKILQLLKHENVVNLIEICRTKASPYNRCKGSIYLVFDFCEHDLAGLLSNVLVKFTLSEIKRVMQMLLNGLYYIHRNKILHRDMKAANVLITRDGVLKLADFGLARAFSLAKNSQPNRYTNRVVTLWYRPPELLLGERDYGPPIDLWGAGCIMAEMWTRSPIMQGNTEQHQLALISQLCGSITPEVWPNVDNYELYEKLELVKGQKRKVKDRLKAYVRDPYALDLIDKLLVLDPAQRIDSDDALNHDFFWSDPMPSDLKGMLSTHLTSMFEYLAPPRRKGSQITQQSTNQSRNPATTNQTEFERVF
UniProt O60563, whole entry partner: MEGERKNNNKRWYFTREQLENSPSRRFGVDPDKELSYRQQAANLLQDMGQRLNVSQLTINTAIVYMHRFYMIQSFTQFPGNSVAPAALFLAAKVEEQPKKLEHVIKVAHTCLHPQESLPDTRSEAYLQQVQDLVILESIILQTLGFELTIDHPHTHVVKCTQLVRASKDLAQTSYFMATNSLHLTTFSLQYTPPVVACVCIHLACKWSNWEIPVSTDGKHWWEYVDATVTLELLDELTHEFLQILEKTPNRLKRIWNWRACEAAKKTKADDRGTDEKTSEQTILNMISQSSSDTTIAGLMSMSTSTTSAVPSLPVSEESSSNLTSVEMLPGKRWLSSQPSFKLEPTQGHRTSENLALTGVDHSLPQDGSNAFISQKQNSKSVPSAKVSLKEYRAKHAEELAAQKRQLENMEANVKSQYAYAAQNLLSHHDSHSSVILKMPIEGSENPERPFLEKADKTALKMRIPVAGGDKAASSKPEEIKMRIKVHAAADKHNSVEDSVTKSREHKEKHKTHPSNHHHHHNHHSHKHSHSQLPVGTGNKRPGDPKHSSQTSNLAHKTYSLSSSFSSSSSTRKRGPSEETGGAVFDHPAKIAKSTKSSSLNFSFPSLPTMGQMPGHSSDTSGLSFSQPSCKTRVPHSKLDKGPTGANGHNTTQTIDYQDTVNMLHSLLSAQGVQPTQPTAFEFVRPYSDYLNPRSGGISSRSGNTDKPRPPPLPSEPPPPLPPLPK

CDK9 [2] = target: T1, CDK9; test: CDK9 degradation by HiBit assay, NCIH1048 cells; details: read-out: HiBit-NCIH1048.3 DC50; NCIH1048 cells with endogenously tagged N-terminal CDK9-HiBit, 24 hours incubation
Method: as §1

DC50 (CDK9 [1]) | DC50 (CDK9 [2]) | Structure (SMILES)
< 0.1 µM | < 0.1 µM | C/C=C(\CC)c1cc(N[C@H]2CC[C@H](NCC(=O)N3CCN(CCNc4cccc5c4C(=O)N(C4CCC(=O)NC4=O)C5=O)CC3)C2)n2nccc2n1 (stereo partly drawn)
> 10 µM |  | CCC(CC)c1cc(N[C@H]2CC[C@H](NCC(=O)NCc3cn(CCOCCOCCOc4cc(-c5scnc5C)ccc4CNC(=O)[C@@H]4C[C@@H](O)CN4C(=O)[C@H](C(C)C)N4Cc5ccccc5C4=O)nn3)C2)n2nccc2n1
